Laboratory results reported in patent US20190209515A1, “Treatment of Bladder Cancer by Intratumoral Injection of Taxane Particles” (CRITITECH, INC., priority 2018, published 2019).

Settings: not told, pH 4

docetaxel
solubility in the Receptor Fluid: sufficient to maintain sink conditions
